# Assay results reported in US9221819B2.
# Protein sequences, listed by entry. Tags and fused reporters are not part of them.
# UniProt P32246, whole entry: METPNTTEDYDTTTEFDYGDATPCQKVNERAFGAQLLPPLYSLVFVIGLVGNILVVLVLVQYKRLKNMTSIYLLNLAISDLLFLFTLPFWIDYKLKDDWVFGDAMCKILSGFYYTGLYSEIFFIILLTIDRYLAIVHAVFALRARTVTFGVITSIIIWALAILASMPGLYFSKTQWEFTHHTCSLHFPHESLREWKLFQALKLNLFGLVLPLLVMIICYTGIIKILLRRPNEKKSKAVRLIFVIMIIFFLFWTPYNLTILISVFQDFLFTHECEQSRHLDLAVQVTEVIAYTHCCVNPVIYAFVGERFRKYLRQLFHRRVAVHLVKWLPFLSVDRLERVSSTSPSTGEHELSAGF
# Biological target: CCR1 (Homo sapiens, UniProt P32246)
# Test: CCR1 Ligand Binding Scintillation Proximity Assay (SPA), [125I]-MIP-1α competition on THP-1 cells
# Conditions: read-out: CCR1 Binding Ki; THP-1 monocytic leukemia cells; 0.1 nM [125I]-MIP-1α; Ki from IC50 by Cheng-Prusoff equation
# Procedure: CCR1 Ligand Binding Scintillation Proximity Assay (SPA)
# For radioligand competition studies, a final concentration of 1×10^5 THP-1 monocytic leukemia cells are combined with 100 μg of LS WGA PS beads (Amersham, Cat.#: RPNQ 0260) in 40 μl of assay buffer (RPMI 1640 without phenol red, 50 mM HEPES, 5 mM MgCl2, 1 mM CaCl2, 0.1% BSA). The THP-1 cell/bead mixture is added to each well of a 384-well assay plate (PerkinElmer, Cat. #:6007899) containing test compound in 3-fold serial dilution, with final concentrations ranging from 8 μM to 140 pM. A final concentration of 0.1 nM [^125I]-MIP-1α (PerkinElmer, Cat. #NEX298) in 20 μl assay buffer is added to the reaction. Sealed assay plates are incubated at room temperature for 12 h then analyzed by LEADseeker™.
# The competition data of compound (I) over a range of concentrations is plotted as percentage inhibition of radioligand specific bound in the absence of test compound (percent of total signal). After correcting for non-specific binding, IC50 values are determined. The IC50 value is defined as the concentration of test compound needed to reduce [^125I]-MIP-1α specific binding by 50% and is calculated using the four parameter logistic equation to fit the normalized data. The Ki values are determined by application of the Cheng-Prusoff equation to the IC50 values, where Ki=IC50/(1+ligand concentration/Kd) The Kd of [^125I]-MIP-1α in THP-1 cells is 0.1 nM. Each experiment is run in duplicate.
row,SMILES,Ki [nM]
1,"CC(C)[C@@H](NC(=O)[C@@H]1CCC2(CCNC(=O)O2)C1)C(=O)N1CC[C@](O)(c2ccc(Cl)cc2)C(C)(C)C1 (single isomer, unassigned)",6.6
2,"CC(C)[C@@H](NC(=O)C1CCCC12CCNC(=O)O2)C(=O)N1CC[C@](O)(c2ccc(Cl)cc2)C(C)(C)C1 (single isomer, unassigned)",2.4
3,"CC(C)[C@@H](NC(=O)[C@@H]1CCC2(CCCN2)C1)C(=O)N1CC[C@](O)(c2ccc(Cl)cc2)C(C)(C)C1 (single isomer, unassigned)",193
